{
  "source": "paper PMC5972182",
  "about": "“Comparison of a Rat Primary Cell-Based Blood-Brain Barrier Model With Epithelial and Brain Endothelial Cell Lines: Gene Expression and Drug Transport” (Frontiers in Molecular Neuroscience, 2018)",
  "key": {"[1]": {"test_system": "human brain endothelial hCMEC/D3 cell line", "experiment": "Permeability across hCMEC/D3 (D3) brain endothelial cell line", "assay_type": "in vitro ADME", "conditions": "Evans blue-labeled albumin 1 mg/ml, 30 min, mean ± SD", "protocol": "(§1) Cultures of human brain endothelial hCMEC/D3 cell line (≤passage number 35) were grown in MCDB 131 medium (Pan Biotech) supplemented with 5% FBS, GlutaMAX (100×, LifeTechnologies, Carlsbad, CA, USA), lipid supplement (100×, Life Technologies, Carlsbad, CA, USA), 10 μg/ml ascorbic acid, 550 nM hydrocortisone, 100 μg/ml heparin, 1 ng/ml basic fibroblast growth factor (bFGF, Roche, USA), 2.5 μg/ml insulin, 2.5 μg/ml transferrin, 2.5 ng/ml sodium selenite and 50 μg/ml gentamicin (Weksler et al., [2005]). For differentiation of this cell line (D3L group), the medium was supplemented with 10 mM lithium chloride (LiCl) at the first change of medium (Paolinelli et al., [2013]). For the three brain endothelial cell lines, we used culture media with very similar or identical composition to those that were originally described for their growth and maintenance."}, "VB-Caco-2 cells": {"test_system": "VB-Caco-2 cells", "experiment": "Permeability across vinblastine-selected VB-Caco-2 cell layers", "conditions": "VB-CaCo2; Evans blue-labeled albumin 1 mg/ml, 30 min; mean ± SD"}, "[2]": {"test_system": "hCMEC/D3 cells with lithium treatment (D3L)", "experiment": "Permeability across lithium-treated hCMEC/D3 (D3L) cells", "assay_type": "in vitro ADME, human", "conditions": "D3L (10 mM LiCl); Evans blue-labeled albumin 1 mg/ml, 30 min; mean ± SD", "protocol": "as §1"}, "[3]": {"test_system": "MDCK canine kidney epithelial cells", "experiment": "Permeability across MDCK cell layers", "assay_type": "in vitro ADME", "conditions": "Evans blue-labeled albumin 1 mg/ml, 30 min, mean ± SD"}, "[4]": {"test_system": "Caco-2 intestinal epithelial cell line", "experiment": "Permeability across Caco-2 epithelial cell layers", "assay_type": "in vitro ADME, human", "conditions": "CaCo2; Evans blue-labeled albumin 1 mg/ml, 30 min; mean ± SD"}, "[5]": {"test_system": "primary rat brain endothelial cell-based BBB model (EPA)", "experiment": "Permeability across primary rat brain endothelial cell-based triple co-culture BBB model (EPA)", "conditions": "Evans blue-labeled albumin 1 mg/ml, 30 min, mean ± SD"}, "[6]": {"test_system": "GP8 rat brain endothelial cell line", "experiment": "Permeability across GP8 brain endothelial cell line", "assay_type": "in vitro ADME", "conditions": "Evans blue-labeled albumin 1 mg/ml, 30 min, mean ± SD", "protocol": "GP8 rat brain endothelial cell line (provided by Dr. John Greenwood, University College London, UK) was cultured in DMEM/ HAM’s F-12, 15% PDS, 100 μg/ml heparin, 1 ng/ml bFGF and 50 μg/ml gentamicin."}},
  "data": [
    {"substance": "Albumin: albumin (Mw: 65 kDa) labeled with Evans blue, marker of transcellular permeability", "values": [
      {"measurement": "Albumin Papp", "setting": "[1]", "result": "2.1 ± 0.31 10^−6 cm/s"},
      {"measurement": "Albumin Papp", "setting": "VB-Caco-2 cells", "result": "0.2 ± 0.08 10^−6 cm/s"},
      {"measurement": "Albumin Papp", "setting": "[2]", "result": "1.7 ±0.12 10^−6 cm/s"},
      {"measurement": "Albumin Papp", "setting": "[3]", "result": "0.6 ± 0.05 10^−6 cm/s"},
      {"measurement": "Albumin Papp", "setting": "[4]", "result": "0.8 ± 0.09 10^−6 cm/s"},
      {"measurement": "Albumin Papp", "setting": "[5]", "result": "0.2 ± 0.03 10^−6 cm/s"},
      {"measurement": "Albumin Papp", "setting": "[6]", "result": "16.5 ± 7.51 10^−6 cm/s"}
    ]}
  ]
}
